{
  "sequences": {"note": "By UniProt entry, the sequences of proteins in these tests, tags left out. Residues count along the entry.", "UniProt P41143, 36-338 P37S": "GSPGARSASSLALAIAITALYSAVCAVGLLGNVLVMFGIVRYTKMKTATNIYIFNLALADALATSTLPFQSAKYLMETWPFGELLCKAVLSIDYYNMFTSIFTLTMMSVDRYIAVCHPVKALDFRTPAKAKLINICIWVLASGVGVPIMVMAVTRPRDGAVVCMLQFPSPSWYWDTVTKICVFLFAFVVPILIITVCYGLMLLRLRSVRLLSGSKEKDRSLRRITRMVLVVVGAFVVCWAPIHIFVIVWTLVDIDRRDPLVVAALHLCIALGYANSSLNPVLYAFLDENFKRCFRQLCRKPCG"},
  "source": "paper PMC3931418",
  "about": "(Nature, 2014)",
  "target": "BRIL-δOR(ΔN/ΔC) (Sf9) (Homo sapiens, UniProt P41143, P37S)",
  "type": "binding",
  "data": [
    {"substance": "DADLE", "values": [
      {"measurement": "effect of NaCl on binding affinity", "value": "reduced the affinity"}
    ]}
  ]
}
